Publication PMC7619385 (ACS infectious diseases, 2025)

Experiments:
[1] = target: NLuc::LmxCLK1 (Leishmania mexicana, UniProt E9AMP2); assay: cell-based; conditions: read-out: Target occupancy Average
Protocol: All compounds were tested at a fixed concentration of 10 µM to enable direct comparison of their target occupancy in live cells.
Serially diluted probes (5 µL) were added to 85 µL of cells in culture media or 85 µL of purified protein. Final well volumes were adjusted to 100 µL with sterile Opti-MEM™ I Reduced Serum Medium (Thermo-Scientific) – for wells containing cells; or Kinase Buffer - for wells containing purified protein. For tracer displacement assays, samples were prepared as above, but final volume was brought to 100 µL by addition of vehicle or serially-diluted test compounds. Final DMSO concentration in these assays was 1%. […] Light emissions at 460+10 nm (BRET donor) and at 610+20 nm (BRET acceptor) were sequentially recorded (integration time = 0.5 s, gain = 3600) using a luminometer (BMG LABTECH Clariostar or Biotek Synergy HT). BRET values are reported in milli-BRET (mBRET) units (mBU), obtained by dividing the acceptor luminescence by the donor luminescence and multiplying the result by a factor of 1,000. BRET values were converted to blank-corrected probe occupancies (%) according to equation [1]: (1) Probeoccupancy(%)=X−Z/Y−Z×100 where X = mBRET value in the presence of the test compound and the probe, Y = mBRET value in the presence of probe only, and Z = mBRET value in the absence of probe and test compound. […]

[2] = target: T1, LmxCLK1 (Leishmania mexicana, UniProt E9AMP2); assay: biochemical; type: binding
T1 sequence (E9AMP2 1-422): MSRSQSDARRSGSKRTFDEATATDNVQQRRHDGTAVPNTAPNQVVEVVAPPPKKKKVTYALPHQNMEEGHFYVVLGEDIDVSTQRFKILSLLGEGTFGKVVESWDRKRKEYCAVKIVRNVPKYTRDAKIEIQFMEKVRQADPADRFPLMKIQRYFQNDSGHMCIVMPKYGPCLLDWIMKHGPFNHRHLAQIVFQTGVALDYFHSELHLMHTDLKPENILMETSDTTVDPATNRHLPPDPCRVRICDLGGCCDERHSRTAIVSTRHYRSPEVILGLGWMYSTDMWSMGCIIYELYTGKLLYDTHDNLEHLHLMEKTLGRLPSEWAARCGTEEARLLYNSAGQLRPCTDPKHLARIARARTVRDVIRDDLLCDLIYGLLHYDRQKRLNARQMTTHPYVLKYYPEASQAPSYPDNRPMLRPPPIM

Question: With CN[C@@H]1C[C@H]2O[C@@](C)([C@@H]1OC)n1c3ccccc3c3c4c(c5c6ccccc6n2c5c31)C(=O)NC4 [Staurosporine] as the molecule, how does the receptor occupancy at 10 µM [1] read?
Answer: 25.4 ± 2%

Question: And the ΔTm at 10 µM ([2]; read-out: ΔTm Average, DSF, 10 µM compound, 2 µM LmxCLK1, mean of two runs)?
Answer: 10.1 ± 0.2 °C

Question: What about the ΔTm at 10 µM ([2]; read-out: ΔTm Run 1, DSF, 10 µM compound, 2 µM LmxCLK1, Run 1) of the same molecule?
Answer: 10.3 °C

Question: And the ΔTm at 10 µM ([2]; read-out: ΔTm Run 2, DSF, 10 µM compound, 2 µM LmxCLK1, Run 2)?
Answer: 10 °C

Question: Which “ΔTm Average” value ([2]; DSF, 10 µM compound, 2 µM LmxCLK1, mean of two runs) does the source give for Nc1ccc(C(=O)Nc2cccc(-c3nc(N4CCOCC4)c4oc5ncccc5c4n3)c2)cn1 [YM201636] here?
Answer: 0.2 °C

Where two headings read alike, the source gives them in different places.
